For the experiment, the target named is T1, recombinant FSH receptor stably transfected and expressed in Chinese Hamster Ovary cells (Homo sapiens, UniProt P23945).
T1 construct: expressed in transfected cells; host or cells: Chinese Hamster Ovary (CHO) cells, stably transfected, with CRE-luciferase reporter
T1 sequence (P23945 18-695): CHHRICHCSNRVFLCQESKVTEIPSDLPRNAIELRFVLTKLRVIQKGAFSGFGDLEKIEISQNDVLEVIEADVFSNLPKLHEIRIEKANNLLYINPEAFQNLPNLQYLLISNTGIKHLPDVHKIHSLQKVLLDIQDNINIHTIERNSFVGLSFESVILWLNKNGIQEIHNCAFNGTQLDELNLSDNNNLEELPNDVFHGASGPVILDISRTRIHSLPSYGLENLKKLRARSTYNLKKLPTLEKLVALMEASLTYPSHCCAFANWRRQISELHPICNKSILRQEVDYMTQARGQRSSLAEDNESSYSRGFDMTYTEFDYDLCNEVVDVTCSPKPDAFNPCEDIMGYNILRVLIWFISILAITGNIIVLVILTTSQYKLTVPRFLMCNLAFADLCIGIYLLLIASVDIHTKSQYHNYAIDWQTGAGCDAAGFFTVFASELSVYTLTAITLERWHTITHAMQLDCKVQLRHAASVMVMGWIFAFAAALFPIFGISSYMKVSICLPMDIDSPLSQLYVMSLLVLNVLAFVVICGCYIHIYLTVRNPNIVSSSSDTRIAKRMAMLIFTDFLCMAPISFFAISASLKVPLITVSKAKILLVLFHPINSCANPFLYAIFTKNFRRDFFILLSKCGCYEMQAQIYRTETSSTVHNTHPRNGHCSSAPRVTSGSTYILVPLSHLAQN
The experiment is described as follows: FSH assay: CHO luciferase FSHR (CRE-luciferase reporter, LDR curves). It counts as cell-based. The note with it: FIG. 6, from the graph; duplicate samples; luciferase luminescence in CHO FSHR cells. On the procedure:
All compounds were stored in 96-well deepwell plates in DMSO at a nominal concentration of 10 mM (assuming perfect synthesis and yields). Compounds were screened for agonist activity at the FSH receptor using the recombinant FSH receptor stably transfected and expressed in Chinese Hamster Ovary cells (CHO cells) essentially as described in the work by Kelton, et al. (Molecular and Cellular Endocrinology, 1992, 89, 141-151). […] An agonist at the FSH receptor increases cAMP in the cell, which results in activation of CREB (cAMP response element binding protein). […] The amount of luciferase expressed was measured by quantitating the luminescence produced by the enzyme using a TopCount scintillation/luminescence counter running in single photon counting mode. […] Luminescence should be saturable at high concentrations of the compound.
The compounds of the invention, in deepwell plates (Master plates) were loaded on the robotic deck along with the appropriate number of assay plates and daughter plates. […] 100 μl of Luclite (prepared as described by the manufacturer) was added to each well and the plate was shaken gently for 40 s prior to placement in the Topcount plate reader. After allowing 3.5 min for the plate to dark-adapt within the machine, the amount of luminescence generated was quantitated using Single Photon Counting mode. […]
On the technique in general: A reporter such as luciferase makes a cellular process visible.

For orientation: EC50 means the concentration needed to bring the measured effect to its halfway point.

In the case of “FSH: pituitary-derived heterodimeric glycoprotein hormone, used as a positive control”, the half-maximal effective concentration (EC50) came out at 1.47 pM.
